Earlier results as cited in patent US20240280594A1, “MULTIWELL PLATE LIPOPHILICITY ASSAY” (Hoffmann-La Roche Inc., priority 2021, published 2024).

Details: shake flask, pH 7.4, average literature value; cited from earlier work

CCC(=O)N(c1ccccc1)C1CCN(CCc2ccccc2)CC1
Literature LogD: 2.86

This is a selection: effects in other tests are not listed, and their absence says nothing.
